Experimental data published in paper PMC11472320, “Computationally Driven Discovery of a BCR-ABL1 Kinase Inhibitor with Activity in Multidrug-Resistant Chronic Myeloid Leukemia” (Journal of Medicinal Chemistry, 2024).

Protein sequences, listed by entry. Tags and fused reporters are not part of them. Lines headed by an entry give the natural chain unless they say otherwise; changes in a name come on top. Residues count along the entry.
UniProt Q13131: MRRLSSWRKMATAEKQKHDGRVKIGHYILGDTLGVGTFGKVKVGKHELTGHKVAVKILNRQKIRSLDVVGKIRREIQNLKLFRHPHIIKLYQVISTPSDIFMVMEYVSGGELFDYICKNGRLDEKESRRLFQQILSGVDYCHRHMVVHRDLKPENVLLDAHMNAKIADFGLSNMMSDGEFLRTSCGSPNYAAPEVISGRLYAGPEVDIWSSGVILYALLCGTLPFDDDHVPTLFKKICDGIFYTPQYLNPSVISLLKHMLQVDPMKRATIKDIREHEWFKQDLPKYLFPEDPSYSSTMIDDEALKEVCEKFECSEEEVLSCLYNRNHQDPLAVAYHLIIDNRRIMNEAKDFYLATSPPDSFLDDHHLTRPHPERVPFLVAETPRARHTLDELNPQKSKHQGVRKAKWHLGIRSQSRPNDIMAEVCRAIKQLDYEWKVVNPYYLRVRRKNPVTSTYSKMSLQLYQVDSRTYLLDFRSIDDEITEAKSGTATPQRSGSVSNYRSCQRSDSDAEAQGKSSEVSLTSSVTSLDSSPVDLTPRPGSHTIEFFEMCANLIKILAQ
UniProt P22455, 22-802: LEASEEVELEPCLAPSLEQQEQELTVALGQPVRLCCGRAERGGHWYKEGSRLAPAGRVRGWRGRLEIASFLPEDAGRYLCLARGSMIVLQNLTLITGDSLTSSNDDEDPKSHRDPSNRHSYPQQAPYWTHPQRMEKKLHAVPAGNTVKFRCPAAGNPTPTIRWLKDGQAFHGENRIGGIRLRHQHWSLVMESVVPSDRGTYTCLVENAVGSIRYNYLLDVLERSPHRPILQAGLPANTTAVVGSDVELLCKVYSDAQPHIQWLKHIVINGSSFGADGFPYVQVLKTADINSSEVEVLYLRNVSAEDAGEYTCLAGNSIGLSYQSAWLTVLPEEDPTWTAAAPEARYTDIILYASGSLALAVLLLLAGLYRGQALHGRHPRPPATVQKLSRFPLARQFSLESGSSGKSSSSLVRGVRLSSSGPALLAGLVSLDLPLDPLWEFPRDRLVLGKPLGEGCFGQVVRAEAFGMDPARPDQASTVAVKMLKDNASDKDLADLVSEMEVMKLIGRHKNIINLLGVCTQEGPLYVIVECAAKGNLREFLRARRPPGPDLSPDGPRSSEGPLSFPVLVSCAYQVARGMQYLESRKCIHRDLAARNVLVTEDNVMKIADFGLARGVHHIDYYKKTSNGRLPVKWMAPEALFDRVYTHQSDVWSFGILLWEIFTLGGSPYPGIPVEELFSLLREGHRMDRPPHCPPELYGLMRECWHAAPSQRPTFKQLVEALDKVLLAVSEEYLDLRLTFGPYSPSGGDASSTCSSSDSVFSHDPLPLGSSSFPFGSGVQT
UniProt Q15831: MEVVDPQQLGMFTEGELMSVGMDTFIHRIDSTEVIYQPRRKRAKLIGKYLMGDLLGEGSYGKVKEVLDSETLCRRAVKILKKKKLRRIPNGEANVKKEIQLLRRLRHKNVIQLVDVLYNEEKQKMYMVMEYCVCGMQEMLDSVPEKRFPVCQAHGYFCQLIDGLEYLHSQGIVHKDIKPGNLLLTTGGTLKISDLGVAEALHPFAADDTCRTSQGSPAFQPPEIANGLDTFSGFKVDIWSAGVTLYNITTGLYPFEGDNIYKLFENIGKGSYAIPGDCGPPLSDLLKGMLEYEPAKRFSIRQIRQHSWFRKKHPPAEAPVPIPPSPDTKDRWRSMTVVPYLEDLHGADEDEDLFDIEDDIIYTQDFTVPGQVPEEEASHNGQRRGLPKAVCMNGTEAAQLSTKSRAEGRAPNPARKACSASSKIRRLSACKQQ
UniProt Q86YV6: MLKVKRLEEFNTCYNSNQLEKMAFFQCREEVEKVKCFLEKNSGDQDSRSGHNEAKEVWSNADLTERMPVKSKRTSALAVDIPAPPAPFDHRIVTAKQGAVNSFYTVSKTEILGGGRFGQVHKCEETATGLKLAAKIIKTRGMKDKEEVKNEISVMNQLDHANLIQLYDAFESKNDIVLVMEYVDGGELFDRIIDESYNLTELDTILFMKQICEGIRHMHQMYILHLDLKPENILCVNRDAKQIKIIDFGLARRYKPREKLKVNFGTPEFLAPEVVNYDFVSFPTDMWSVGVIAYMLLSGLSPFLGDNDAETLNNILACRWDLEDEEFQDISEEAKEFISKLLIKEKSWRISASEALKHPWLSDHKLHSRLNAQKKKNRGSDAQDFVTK
UniProt Q9UBE8: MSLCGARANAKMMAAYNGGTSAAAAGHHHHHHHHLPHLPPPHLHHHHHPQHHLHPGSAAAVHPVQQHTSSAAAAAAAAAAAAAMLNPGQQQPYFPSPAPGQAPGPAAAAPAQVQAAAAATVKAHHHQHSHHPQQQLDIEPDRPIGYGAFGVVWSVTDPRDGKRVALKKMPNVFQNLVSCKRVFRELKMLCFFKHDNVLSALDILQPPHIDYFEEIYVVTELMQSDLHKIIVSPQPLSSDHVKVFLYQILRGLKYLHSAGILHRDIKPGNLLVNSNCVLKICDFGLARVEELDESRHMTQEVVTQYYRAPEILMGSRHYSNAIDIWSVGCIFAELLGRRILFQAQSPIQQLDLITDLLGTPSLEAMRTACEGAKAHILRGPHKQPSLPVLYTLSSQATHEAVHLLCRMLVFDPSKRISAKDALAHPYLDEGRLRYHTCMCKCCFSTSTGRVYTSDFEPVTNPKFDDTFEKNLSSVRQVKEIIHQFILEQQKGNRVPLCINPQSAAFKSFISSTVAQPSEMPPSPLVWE
UniProt P42336, whole entry: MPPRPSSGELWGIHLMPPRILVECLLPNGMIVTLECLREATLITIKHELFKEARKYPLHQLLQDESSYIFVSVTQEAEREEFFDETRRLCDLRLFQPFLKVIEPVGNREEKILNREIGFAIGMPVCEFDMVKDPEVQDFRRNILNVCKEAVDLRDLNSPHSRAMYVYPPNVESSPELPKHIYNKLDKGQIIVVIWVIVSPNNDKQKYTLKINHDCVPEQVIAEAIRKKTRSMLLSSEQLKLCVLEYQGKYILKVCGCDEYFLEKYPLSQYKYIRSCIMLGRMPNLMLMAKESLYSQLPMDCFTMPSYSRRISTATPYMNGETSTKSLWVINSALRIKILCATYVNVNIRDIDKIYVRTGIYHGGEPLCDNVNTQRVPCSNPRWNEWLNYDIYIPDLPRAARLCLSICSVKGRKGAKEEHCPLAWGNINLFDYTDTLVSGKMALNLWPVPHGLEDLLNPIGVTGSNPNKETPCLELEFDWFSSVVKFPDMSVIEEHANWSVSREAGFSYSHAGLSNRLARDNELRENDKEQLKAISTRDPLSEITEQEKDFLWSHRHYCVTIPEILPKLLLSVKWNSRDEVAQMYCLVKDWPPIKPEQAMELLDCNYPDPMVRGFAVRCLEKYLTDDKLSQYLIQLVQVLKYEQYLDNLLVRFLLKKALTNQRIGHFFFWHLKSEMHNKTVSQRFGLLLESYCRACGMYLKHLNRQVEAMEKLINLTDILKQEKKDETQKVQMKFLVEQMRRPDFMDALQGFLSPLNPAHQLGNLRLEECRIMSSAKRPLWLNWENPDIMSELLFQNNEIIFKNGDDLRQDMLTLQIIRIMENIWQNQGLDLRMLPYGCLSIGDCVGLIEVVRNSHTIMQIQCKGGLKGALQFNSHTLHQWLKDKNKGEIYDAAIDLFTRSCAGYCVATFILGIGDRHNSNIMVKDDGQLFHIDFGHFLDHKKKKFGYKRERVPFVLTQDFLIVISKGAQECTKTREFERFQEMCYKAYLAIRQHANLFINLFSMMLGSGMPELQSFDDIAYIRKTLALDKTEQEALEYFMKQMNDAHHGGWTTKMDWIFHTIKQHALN
UniProt P42336, whole entry H1047L: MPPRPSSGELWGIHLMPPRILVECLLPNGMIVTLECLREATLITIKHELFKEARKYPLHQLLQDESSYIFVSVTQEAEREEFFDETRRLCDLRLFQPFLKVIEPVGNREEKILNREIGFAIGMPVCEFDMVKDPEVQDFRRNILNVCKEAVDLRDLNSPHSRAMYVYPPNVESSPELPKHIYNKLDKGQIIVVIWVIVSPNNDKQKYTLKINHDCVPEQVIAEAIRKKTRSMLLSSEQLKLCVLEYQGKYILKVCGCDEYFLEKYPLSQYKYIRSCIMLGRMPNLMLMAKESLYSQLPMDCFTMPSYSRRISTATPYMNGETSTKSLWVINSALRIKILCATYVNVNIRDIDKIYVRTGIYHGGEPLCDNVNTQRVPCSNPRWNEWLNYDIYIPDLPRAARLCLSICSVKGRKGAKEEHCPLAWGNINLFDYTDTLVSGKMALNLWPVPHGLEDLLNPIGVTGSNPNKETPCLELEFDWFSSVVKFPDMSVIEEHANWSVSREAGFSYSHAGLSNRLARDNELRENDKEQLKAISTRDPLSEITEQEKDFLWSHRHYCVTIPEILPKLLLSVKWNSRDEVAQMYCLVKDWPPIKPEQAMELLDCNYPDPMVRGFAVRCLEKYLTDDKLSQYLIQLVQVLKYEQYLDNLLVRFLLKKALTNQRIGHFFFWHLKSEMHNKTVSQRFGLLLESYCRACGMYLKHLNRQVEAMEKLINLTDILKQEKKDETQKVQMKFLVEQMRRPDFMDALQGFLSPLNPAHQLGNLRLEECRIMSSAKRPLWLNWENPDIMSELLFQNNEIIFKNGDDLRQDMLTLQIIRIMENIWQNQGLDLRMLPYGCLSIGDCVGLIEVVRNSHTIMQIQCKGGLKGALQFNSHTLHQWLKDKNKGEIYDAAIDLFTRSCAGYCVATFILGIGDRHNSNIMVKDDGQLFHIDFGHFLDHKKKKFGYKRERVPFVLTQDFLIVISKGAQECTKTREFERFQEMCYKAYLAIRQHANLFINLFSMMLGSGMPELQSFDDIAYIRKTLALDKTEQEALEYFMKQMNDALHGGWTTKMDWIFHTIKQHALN
UniProt P42336, whole entry Q546K: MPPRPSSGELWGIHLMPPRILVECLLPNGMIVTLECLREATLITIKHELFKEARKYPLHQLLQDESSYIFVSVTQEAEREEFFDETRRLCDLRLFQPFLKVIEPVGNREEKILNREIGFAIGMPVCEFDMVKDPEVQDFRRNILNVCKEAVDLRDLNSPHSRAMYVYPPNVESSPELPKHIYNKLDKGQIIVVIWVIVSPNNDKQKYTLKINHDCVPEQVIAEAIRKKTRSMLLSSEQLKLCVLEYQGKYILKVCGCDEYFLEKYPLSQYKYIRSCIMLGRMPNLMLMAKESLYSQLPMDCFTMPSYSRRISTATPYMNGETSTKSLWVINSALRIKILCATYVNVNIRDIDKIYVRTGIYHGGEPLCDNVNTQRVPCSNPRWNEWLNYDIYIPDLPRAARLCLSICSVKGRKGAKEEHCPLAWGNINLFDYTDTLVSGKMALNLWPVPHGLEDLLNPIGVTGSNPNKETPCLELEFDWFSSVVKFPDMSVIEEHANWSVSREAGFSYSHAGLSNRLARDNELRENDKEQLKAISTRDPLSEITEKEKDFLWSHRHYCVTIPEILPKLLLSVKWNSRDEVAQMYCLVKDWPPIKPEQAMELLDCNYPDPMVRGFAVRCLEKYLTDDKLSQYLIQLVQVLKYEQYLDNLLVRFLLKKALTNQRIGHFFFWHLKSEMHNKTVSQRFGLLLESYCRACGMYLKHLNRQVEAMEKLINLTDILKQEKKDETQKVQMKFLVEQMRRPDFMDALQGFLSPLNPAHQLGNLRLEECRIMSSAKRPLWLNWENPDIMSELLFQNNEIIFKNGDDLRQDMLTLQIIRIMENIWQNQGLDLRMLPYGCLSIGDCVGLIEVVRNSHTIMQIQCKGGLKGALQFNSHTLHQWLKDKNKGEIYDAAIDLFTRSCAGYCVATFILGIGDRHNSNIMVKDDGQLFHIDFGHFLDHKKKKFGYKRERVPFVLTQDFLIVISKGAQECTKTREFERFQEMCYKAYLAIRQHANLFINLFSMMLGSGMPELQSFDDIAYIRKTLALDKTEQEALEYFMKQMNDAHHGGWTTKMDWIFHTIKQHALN
UniProt Q99755: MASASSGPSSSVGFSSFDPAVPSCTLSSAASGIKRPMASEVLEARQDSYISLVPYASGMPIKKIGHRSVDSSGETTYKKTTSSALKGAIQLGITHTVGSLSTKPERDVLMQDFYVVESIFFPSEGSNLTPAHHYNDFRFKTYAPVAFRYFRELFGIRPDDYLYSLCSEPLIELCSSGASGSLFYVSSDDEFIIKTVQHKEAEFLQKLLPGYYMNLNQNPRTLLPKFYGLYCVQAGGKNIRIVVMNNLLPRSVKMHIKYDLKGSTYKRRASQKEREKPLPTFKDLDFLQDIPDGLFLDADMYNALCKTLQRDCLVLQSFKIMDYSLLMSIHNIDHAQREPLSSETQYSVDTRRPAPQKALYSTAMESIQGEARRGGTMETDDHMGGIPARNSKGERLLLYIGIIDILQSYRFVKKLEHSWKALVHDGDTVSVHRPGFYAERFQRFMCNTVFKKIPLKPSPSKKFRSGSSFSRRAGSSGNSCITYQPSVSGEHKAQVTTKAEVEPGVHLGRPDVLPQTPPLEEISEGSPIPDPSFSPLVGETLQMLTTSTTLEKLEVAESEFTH

Columns and labels:
Assay in all cases: biochemical
Settings in all cases: read-out: Percent Control
AMPK-alpha1 = AMPK-alpha1 (Homo sapiens, UniProt Q13131)
BRK = BRK (Homo sapiens, UniProt Q13882)
CAMK4 = CAMK4 (Homo sapiens, UniProt Q16566)
CLK3 = CLK3 (Homo sapiens, UniProt P49761)
DCAMKL1 = DCAMKL1 (Homo sapiens, UniProt O15075)
DCAMKL3 = DCAMKL3 (Homo sapiens, UniProt Q9C098)
DRAK2 = DRAK2 (Homo sapiens, UniProt O94768)
[1] = biological target: EGFR(L747-S752del, P753S) (Homo sapiens, UniProt P00533, DEL747-752/P753S)
EGFR(S752-I759del) = EGFR(S752-I759del) (Homo sapiens, UniProt P00533, DEL752-759)
ERK2 = ERK2 (Homo sapiens, UniProt P28482)
FGFR4 = FGFR4 (Homo sapiens, UniProt P22455)
FGR = FGR (Homo sapiens, UniProt P09769)
FRK = FRK (Homo sapiens, UniProt P42685)
LATS2 = LATS2 (Homo sapiens, UniProt Q9NRM7)
LCK = LCK (Homo sapiens, UniProt P06239)
LKB1 = LKB1 (Homo sapiens, UniProt Q15831)
LYN = LYN (Homo sapiens, UniProt P07948)
MAP4K2 = MAP4K2 (Homo sapiens, UniProt Q12851)
MARK2 = MARK2 (Homo sapiens, UniProt Q7KZI7)
MEK3 = MEK3 (Homo sapiens, UniProt P46734)
MET(Y1235D) = MET(Y1235D) (Homo sapiens, UniProt P08581, Y1235D)
MLCK = MLCK (Homo sapiens, UniProt Q32MK0)
MST2 = MST2 (Homo sapiens, UniProt Q13188)
MTOR = MTOR (Homo sapiens, UniProt P42345)
MUSK = MUSK (Homo sapiens, UniProt O15146)
MYLK4 = MYLK4 (Homo sapiens, UniProt Q86YV6)
NEK1 = NEK1 (Homo sapiens, UniProt Q96PY6)
NLK = NLK (Homo sapiens, UniProt Q9UBE8)
PAK1 = PAK1 (Homo sapiens, UniProt Q13153)
PAK6 = PAK6 (Homo sapiens, UniProt Q9NQU5)
PIK3CA = PIK3CA (Homo sapiens, UniProt P42336)
PIK3CA(H1047L) = PIK3CA(H1047L) (Homo sapiens, UniProt P42336, H1047L)
PIK3CA(Q546K) = PIK3CA(Q546K) (Homo sapiens, UniProt P42336, Q546K)
PIP5K1A = PIP5K1A (Homo sapiens, UniProt Q99755)
QSK = QSK (Homo sapiens, UniProt Q9Y2K2)
RIOK3 = RIOK3 (Homo sapiens, UniProt O14730)
RIPK5 = RIPK5 (Homo sapiens, UniProt Q6XUX3)
[2] = biological target: RPS6KA5(Kin.Dom.1-N-terminal) (Homo sapiens, UniProt O75582)
TGFBR2 = TGFBR2 (Homo sapiens, UniProt P37173)
TRKA = TRKA (Homo sapiens, UniProt P04629)
TTK = TTK (Homo sapiens, UniProt P33981)
WNK1 = WNK1 (Homo sapiens, UniProt Q9H4A3)

In the case of `COc1cc2c(Nc3ccc(Cl)c(OC)n3)c(C#N)cnc2cc1OCCON1CCN(C)CC1` [16a, 4-((5-Chloro-6-methoxypyridin-2-yl)amino)-6-methoxy-7-(2-((4-methylpiperazin-1-yl)oxy)ethoxy)quinoline-3-carbonitrile], the remaining activity at 1 µM (AMPK-alpha1) is reported as 31%, the remaining activity at 1 µM (BRK) is reported as 96% and the remaining activity at 1 µM (CAMK4) is reported as 100%. It also gave a remaining activity at 1 µM (CLK3) of 36%, a remaining activity at 1 µM (DCAMKL1) of 70% and a remaining activity at 1 µM (DCAMKL3) of 9.1%. It also gave a remaining activity at 1 µM (DRAK2) of 100%, a remaining activity at 1 µM [1] of 0.5% and a remaining activity at 1 µM (EGFR(S752-I759del)) of 1.9%. For the same compound, the remaining activity at 1 µM (ERK2) was 100%, the remaining activity at 1 µM (FGFR4) was 100% and the remaining activity at 1 µM (FGR) was 5.4%. It also gave a remaining activity at 1 µM (FRK) of 6.1%, a remaining activity at 1 µM (LATS2) of 91% and a remaining activity at 1 µM (LCK) of 0.35%. For the same compound, the remaining activity at 1 µM (LKB1) was 68%, the remaining activity at 1 µM (LYN) was 1.4% and the remaining activity at 1 µM (MAP4K2) was 0%. It also gave a remaining activity at 1 µM (MARK2) of 32%, a remaining activity at 1 µM (MEK3) of 36% and a remaining activity at 1 µM (MET(Y1235D)) of 80%. The remaining activity at 1 µM (MLCK) was 61%, the remaining activity at 1 µM (MST2) was 29% and the remaining activity at 1 µM (MTOR) was 80%. It also gave a remaining activity at 1 µM (MUSK) of 22%, a remaining activity at 1 µM (MYLK4) of 100% and a remaining activity at 1 µM (NEK1) of 62%. For the same compound, the remaining activity at 1 µM (NLK) was 97%, the remaining activity at 1 µM (PAK1) was 48% and the remaining activity at 1 µM (PAK6) was 99%. For the same compound, the remaining activity at 1 µM (PIK3CA) was 100%, the remaining activity at 1 µM (PIK3CA(H1047L)) was 100% and the remaining activity at 1 µM (PIK3CA(Q546K)) was 100%. The remaining activity at 1 µM (PIP5K1A) was 15%, the remaining activity at 1 µM (QSK) was 5.5% and the remaining activity at 1 µM (RIOK3) was 0.8%. For the same compound, the remaining activity at 1 µM (RIPK5) was 22%, the remaining activity at 1 µM [2] was 100% and the remaining activity at 1 µM (TGFBR2) was 100%. It also gave a remaining activity at 1 µM (TRKA) of 62%, a remaining activity at 1 µM (TTK) of 96% and a remaining activity at 1 µM (WNK1) of 60%.
